Laboratory results from ChEMBL document CHEMBL2176890 (J Med Chem, 2012).

Sequences of proteins named here, by UniProt entry; tags and fusion partners are left off.
UniProt Q8NER1, whole entry: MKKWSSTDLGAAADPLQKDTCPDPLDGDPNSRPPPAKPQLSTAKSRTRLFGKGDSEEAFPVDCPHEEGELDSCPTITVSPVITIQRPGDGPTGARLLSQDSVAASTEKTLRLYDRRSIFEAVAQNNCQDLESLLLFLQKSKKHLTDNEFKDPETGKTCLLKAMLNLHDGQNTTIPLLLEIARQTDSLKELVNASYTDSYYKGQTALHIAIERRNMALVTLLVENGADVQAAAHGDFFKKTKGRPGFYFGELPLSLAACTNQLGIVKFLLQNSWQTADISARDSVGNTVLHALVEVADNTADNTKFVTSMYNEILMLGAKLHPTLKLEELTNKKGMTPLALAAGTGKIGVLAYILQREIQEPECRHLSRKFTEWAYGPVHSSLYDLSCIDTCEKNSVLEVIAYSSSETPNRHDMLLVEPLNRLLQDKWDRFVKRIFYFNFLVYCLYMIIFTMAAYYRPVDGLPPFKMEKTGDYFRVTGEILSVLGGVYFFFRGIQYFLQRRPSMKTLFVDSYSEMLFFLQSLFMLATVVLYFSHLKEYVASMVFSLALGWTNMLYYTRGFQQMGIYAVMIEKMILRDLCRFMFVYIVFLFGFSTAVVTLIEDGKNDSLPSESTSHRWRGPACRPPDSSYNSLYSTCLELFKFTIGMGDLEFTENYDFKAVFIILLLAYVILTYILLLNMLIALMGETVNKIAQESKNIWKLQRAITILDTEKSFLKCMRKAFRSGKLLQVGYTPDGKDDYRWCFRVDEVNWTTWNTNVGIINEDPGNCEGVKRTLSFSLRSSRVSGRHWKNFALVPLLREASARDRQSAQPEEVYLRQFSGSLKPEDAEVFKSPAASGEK

How the values were obtained:
[1] = target: T1, Transient receptor potential cation channel subfamily V member 1 (Homo sapiens, UniProt Q8NER1); assay: Antagonist activity at human TRPV1 expressed in CHOK1 cells assessed as inhibition of capsaicin-induced activity by FLIPR assay; assay type: functional, cell-based, CHO-K1
[2] = target: T1, Transient receptor potential cation channel subfamily V member 1; assay: Antagonist activity at human TRPV1 expressed in CHOK1 cells assessed as inhibition of pH-induced activity by FLIPR assay; assay type: functional, cell-based, CHO-K1

Row | Structure (SMILES) | Ki [1] [nM] | IC50 [2] [nM]
1 | C[C@H](C(=O)NCc1ccc(C(F)(F)F)nc1N1CCC(c2ccccc2)CC1)c1ccc(NS(C)(=O)=O)c(F)c1 | 0.3 | 17.4
2 | C[C@@H](C(=O)NCc1ccc(C(F)(F)F)nc1N1CCC(c2ccccc2)CC1)c1ccc(NS(C)(=O)=O)c(F)c1 | 7.5 | 2350
